From publication PMC5045374 (Oncotarget, 2016)

Tested on: ALK (Δ4-11) in CLB-BAR cells

Compound: COc1cc(N2CCC(N3CCN(C)CC3)CC2)ccc1Nc1ncc(Cl)c(Nc2ccccc2P(C)(C)=O)n1 [brigatinib]
- concentration at which phosphorylation of ALK was abolished: 50 nM
